Data taken from the CheMixHub viscosity set.
Where “and” joins values, the source holds several entries; their conditions need not be identical. Equal values may be shown once.

Key:
[1] = xn = mol fraction of the nth substance listed

OCCOCCOCCOCCO + FCC(F)(F)F
viscosity [mPa·s], [1], 101.32 kPa
Conditions	x1 = 0.698	x1 = 0.7	x1 = 0.82	x1 = 0.821	x1 = 0.888	x1 = 0.889
293.15 K	9.94	–	21.1	–	32.9	–
313.15 K	–	4.99	–	9.21	–	13.5

OCCOCCOCCOCCO + CCCCOCCO
[1], 101 kPa
Conditions	viscosity [mPa·s]
293.15 K, x2 = 0.053	47.59
293.15 K, x2 = 0.1047	42.21
293.15 K, x2 = 0.1967	34.08
293.15 K, x2 = 0.3005	26.69
293.15 K, x2 = 0.4003	20.84
293.15 K, x2 = 0.454	18.19
293.15 K, x2 = 0.4998	16.09
293.15 K, x2 = 0.55	14.05
293.15 K, x2 = 0.595	12.39
293.15 K, x2 = 0.6961	9.19
293.15 K, x2 = 0.7962	6.79
293.15 K, x2 = 0.8953	4.815
293.15 K, x2 = 0.9473	3.981
298.15 K, x2 = 0.0496	40.08
298.15 K, x2 = 0.1032	36.04
298.15 K, x2 = 0.2034	29.22
298.15 K, x2 = 0.2967	23.75
298.15 K, x2 = 0.4007	18.65
298.15 K, x2 = 0.4492	16.58
298.15 K, x2 = 0.5	14.6
298.15 K, x2 = 0.5507	12.81
298.15 K, x2 = 0.602	11.18
298.15 K, x2 = 0.6995	8.452
298.15 K, x2 = 0.7986	6.25
298.15 K, x2 = 0.8939	4.458
298.15 K, x2 = 0.9515	3.524
303.15 K, x2 = 0.0559	32.33
303.15 K, x2 = 0.1039	29.55
303.15 K, x2 = 0.2032	24.4
303.15 K, x2 = 0.3	20.07
303.15 K, x2 = 0.4036	16.1
303.15 K, x2 = 0.4492	14.55
303.15 K, x2 = 0.4999	12.95
303.15 K, x2 = 0.5496	11.49
303.15 K, x2 = 0.5908	10.38
303.15 K, x2 = 0.6872	8.028
303.15 K, x2 = 0.7917	5.852
303.15 K, x2 = 0.8981	3.981
303.15 K, x2 = 0.9472	3.218

OCCOCCOCCOCCO + O=S1(=O)CCCC1
[1], 303.15 K, 101 kPa
Conditions	viscosity [mPa·s]
x2 = 0.0511	33.89
x2 = 0.0993	32.17
x2 = 0.1997	28.58
x2 = 0.3005	25.15
x2 = 0.3969	22.22
x2 = 0.4521	20.7
x2 = 0.4986	19.51
x2 = 0.55	18.27
x2 = 0.5937	17.28
x2 = 0.6989	15.04
x2 = 0.801	13.02
x2 = 0.899	11.29
x2 = 0.9457	10.65

OCCOCCOCCOCCO + COCCO
viscosity [mPa·s], [1], 101 kPa
Conditions	293.15 K	298.15 K	303.15 K
x2 = 0.0725	46.35	39.14	31.64
x2 = 0.1073	43.17	36.72	29.69
x2 = 0.1599	38.54	33.16	26.82
x2 = 0.2016	35.04	30.45	24.66
x2 = 0.2489	31.3	27.47	22.3
x2 = 0.3027	27.33	24.24	19.77
x2 = 0.3523	23.94	21.44	17.62
x2 = 0.4136	20.14	18.11	15.1
x2 = 0.4537	17.87	16.11	13.57
x2 = 0.4979	15.58	14.05	12.02
x2 = 0.5484	13.2	11.87	10.28
x2 = 0.6014	11	9.852	8.723
x2 = 0.6523	9.117	8.152	7.342
x2 = 0.6991	7.604	6.801	6.195
x2 = 0.7477	6.243	5.586	5.137
x2 = 0.7997	4.983	4.506	4.166
x2 = 0.8523	3.917	3.59	3.323
x2 = 0.892	3.214	3	2.772
x2 = 0.9486	2.372	2.235	2.067

OCCOCCOCCOCCO + C[N+](C)(C)CCO.[Cl-]
viscosity, [1], 101.33 kPa
Conditions	298.15 K	298.17 K	298.18 K	298.19 K	303.17 K	303.18 K	313.15 K	313.16 K	313.17 K
x1 = 0.8	78.9 mPa·s	77.65 mPa·s	–	–	–	66.67 mPa·s and 64.47 mPa·s	–	47.69 mPa·s	45.74 mPa·s
x1 = 0.9	–	–	65.41 mPa·s	66.11 mPa·s	45.01 mPa·s	54.07 mPa·s	34.99 mPa·s	45.5 mPa·s	–

OCCOCCOCCOCCO + CCOCCO
[1], 101 kPa
Conditions	viscosity [mPa·s]
293.15 K, x2 = 0.0502	47.89
293.15 K, x2 = 0.0969	43.09
293.15 K, x2 = 0.2063	33.37
293.15 K, x2 = 0.2971	26.66
293.15 K, x2 = 0.4006	20.22
293.15 K, x2 = 0.4466	17.75
293.15 K, x2 = 0.5031	15
293.15 K, x2 = 0.5526	12.92
293.15 K, x2 = 0.5998	11.11
293.15 K, x2 = 0.7001	7.904
293.15 K, x2 = 0.7995	5.434
293.15 K, x2 = 0.9	3.553
293.15 K, x2 = 0.95	2.792
298.15 K, x2 = 0.0686	38.73
298.15 K, x2 = 0.1055	35.94
298.15 K, x2 = 0.1983	29.37
298.15 K, x2 = 0.2962	23.47
298.15 K, x2 = 0.3972	18.27
298.15 K, x2 = 0.4507	15.9
298.15 K, x2 = 0.5008	13.91
298.15 K, x2 = 0.5475	12.21
298.15 K, x2 = 0.5997	10.48
298.15 K, x2 = 0.7	7.546
298.15 K, x2 = 0.7998	5.214
298.15 K, x2 = 0.8932	3.431
298.15 K, x2 = 0.9502	2.517
303.15 K, x2 = 0.0528	32.26
303.15 K, x2 = 0.1002	29.43
303.15 K, x2 = 0.1959	24.27
303.15 K, x2 = 0.305	19.16
303.15 K, x2 = 0.4084	14.96
303.15 K, x2 = 0.4513	13.36
303.15 K, x2 = 0.4997	11.72
303.15 K, x2 = 0.5489	10.24
303.15 K, x2 = 0.5937	9.006
303.15 K, x2 = 0.6994	6.489
303.15 K, x2 = 0.8006	4.511
303.15 K, x2 = 0.9014	2.903
303.15 K, x2 = 0.9481	2.266

OCCOCCOCCOCCO
viscosity
Conditions	293.15 K	298.15 K	303.15 K	308.15 K	313.15 K	318.15 K	323.15 K
100 kPa	59.5 mPa·s	44.6 mPa·s and 44.63 mPa·s	35.5 mPa·s and 34.79 mPa·s	28.8 mPa·s and 27.72 mPa·s	–	18.32 mPa·s	15.29 mPa·s
101 kPa	–	–	–	27.89 mPa·s and 25.75 mPa·s	20.65 mPa·s	18.43 mPa·s and 16.76 mPa·s	15.35 mPa·s
101.32 kPa	–	–	–	–	22.8 mPa·s	–	–
101.33 kPa	59.5 mPa·s	44.5 mPa·s	35.2 mPa·s	–	23.1 mPa·s	–	–

OCCOCCOCCOCCO + CCCC[N+](CCCC)(CCCC)CCCC.[Br-]
[1], 101 kPa, x2 = 0.2
Conditions	viscosity [mPa·s]
298.15 K	94.6
303.15 K	71.9
308.15 K	56.7
313.15 K	45.3
318.15 K	36.7
323.15 K	30.5
